Values of other authors, collected in patent US20140271529A1, “ANTIFUNGAL COMPOSITIONS FOR THE TREATMENT OF SECONDARY SKIN AND NAIL INFECTIONS” (ALC Therapeutics, LLC, priority 2013, published 2014).

Conditions: human, in vivo

In the case of cetuximab, the “acute paronychia, patients affected” value is given as “up to 41%”.
